From PubChem BioAssay (EPA / NIEHS)
The list shows a part of the results, in another mix than the full data. Calls of active or inactive are those of the source. The calls were made as follows: active = hit-call score of the fitted dose curve at least 0.9, where 1 is the maximum; inactive = score below 0.9.

assay: ATG_GRE_CIS: Attagene CIS-FACTORIAL HepG2 Assay for human Glucocorticoid Response Elements (GRE) (AID 2282947); details: HepG2 GRE cis-reporter, Attagene multiplex mRNA; actives raise or lower the signal
Experimental: ATG_CIS is a cell-based, multiplexed-readout assay that uses HepG2, a human liver cell line, with measurements taken at 24 hours after chemical dosing in a 24-well plate.ATG_GRE_CIS is one of 52 assay component(s) measured or calculated from the ATG_CIS assay. It is designed to make measurements of mRNA induction, a form of inducible reporter, as detected with fluorescence intensity signals by Reverse transcription polymerase chain reaction (RT-PCR) and Capillary electrophoresis technology.Data from the assay component ATG_GRE_CIS was analyzed into 1 assay endpoint. This assay endpoint, ATG_GRE_CIS, was analyzed with bidirectional fitting relative to DMSO as the negative control and baseline of activity. Using a type of inducible reporter, measures of mRNA for gain or loss-of-signal activity can be used to understand the reporter gene at the transcription factor-level as they relate to the gene NR3C1. Furthermore, this assay endpoint can be referred to as a primary readout, because this assay has produced multiple assay endpoints where this one serves a reporter gene function. To generalize the intended target to other relatable targets, this assay endpoint is annotated to the nuclear receptor intended target family, where the subfamily is steroidal.
Human liver HepG2 cells are transiently transfected with multiple reporter transcription units (MRTUs) in 6-well plates using FuGene 6 reagent (Roche; 3 ml FuGene/1 mg DNA). The MRTU constructs are regulated by a cis-regulating element (promoter). […] A major difference between the CIS and TRANS system is that in CIS activities of endogenous TFs are measured, whereas the TRANS assay evaluates changes in activities of exogenous, chimeric NR-Gal4 proteins. […] At the end of 24 hour incubation, total RNA was isolated using TriZol reagent (Invitrogen). The isolated RNA is then reverse-transcribed using oligo(dT) primer and Mo-MLV reverse transcriptase (Invitrogen) with DNAse I (Ambion) treatment for 30 min. The one-tenth of the produced cDNA was amplified by PCR using Taq DNA polymerase (Invitrogen) and two reporter sequence-specific primers. The PCR products were fluorescently labeled by primer extension with 6-arboxyfluorescein (6-FAM) 5'-labeled reporter sequence-specific primer (2 min at 95 C, 20 s at 68 C and 10 min at 72 C) and these products were digested with 5U of HpaI (New England Biolabs) for 2h at 37 C. The fragments were purified using Qiaquick PCR columns (Qiagen), analyzed on an ABI 3130xL genetic analyzer (Applied Biosystems) with peak positions identified by using a set of X-rhodamine (ROX)-labeled MapMarker1000 molecular weight standards (BioVentures). The raw capillary electrophoresis data was processed using Attagraph software (Attagene).

Compound | outcome
CN(C(=O)Cc1cccc2occc12)[C@H]1CC[C@@]2(CCCO2)C[C@@H]1N1CCCC1 | inactive
O=C1C2CC=CCC2C(=O)N1SC(Cl)(Cl)C(Cl)Cl (stereo unspecified) | inactive
CC(C)CCCCCCCOP(OCCCCCCCC(C)C)Oc1ccccc1 | inactive
Cc1cc([N+](=O)[O-])cc([N+](=O)[O-])c1O | inactive
CC(C)OP(=S)(OC(C)C)SCCNS(=O)(=O)c1ccccc1 | inactive
N#CSc1ccc([N+](=O)[O-])cc1[N+](=O)[O-] | inactive
CCCCC(CC)CO[P+](=O)OCC(CC)CCCC (stereo unspecified) | inactive
ClP(Cl)c1ccccc1 | inactive
O=[N+]([O-])c1ccc([N+](=O)[O-])cc1 | inactive
O=C(Cl)Oc1ccccc1 | inactive
CCCCOP(OCCCC)OCCCC | inactive
O=P(Cl)(Oc1ccccc1)Oc1ccccc1 | inactive
O=[As]c1ccccc1 (stereo unspecified) | inactive
O=C(Cl)OCCOC(=O)Cl | inactive
O=[P+](Oc1ccccc1)Oc1ccccc1 | inactive
O=[p+]1oc2ccccc2c2ccccc21 (stereo unspecified) | inactive
